Data published in publication PMC3414448 (PLoS ONE, 2012).

Tests used:
CHO-K1 cells = details: CHO-K1, 100 µM, 20 hr treatment

With `CO[C@@]12[C@H](COC(N)=O)C3=C(C(=O)C(C)=C(N)C3=O)N1C[C@@H]1N[C@@H]12` [MMC, mitomycin C] the “% Binucleated” value (CHO-K1 cells) was 62.33%, the “% Binucleated” value (A549 cells; A549, 1 µM, 20 hr treatment) was 58.78% and the “% Binucleated” value (A549 cells; A549, 100 µM, 20 hr treatment) was 46.78%. For the same compound, the “kinetochore-negative MN (CENP-B staining)” value (A549 cells; A549, data not shown) was “increases in kinetochore-negative MN” and the “% Binucleated” value (A549 cells; human) was 57.00%.

Read-outs that look alike come from different tables or passages of the source.
